From patent publication US12252701B2, “Chimeric antigen receptor T cell therapy” (KITE PHARMA, INC., priority 2020, dated 2025)

Amino acid sequences for entries named in this document (tags omitted). A change or cut given only in a name is not applied to a line headed by its entry.
UniProt O60674: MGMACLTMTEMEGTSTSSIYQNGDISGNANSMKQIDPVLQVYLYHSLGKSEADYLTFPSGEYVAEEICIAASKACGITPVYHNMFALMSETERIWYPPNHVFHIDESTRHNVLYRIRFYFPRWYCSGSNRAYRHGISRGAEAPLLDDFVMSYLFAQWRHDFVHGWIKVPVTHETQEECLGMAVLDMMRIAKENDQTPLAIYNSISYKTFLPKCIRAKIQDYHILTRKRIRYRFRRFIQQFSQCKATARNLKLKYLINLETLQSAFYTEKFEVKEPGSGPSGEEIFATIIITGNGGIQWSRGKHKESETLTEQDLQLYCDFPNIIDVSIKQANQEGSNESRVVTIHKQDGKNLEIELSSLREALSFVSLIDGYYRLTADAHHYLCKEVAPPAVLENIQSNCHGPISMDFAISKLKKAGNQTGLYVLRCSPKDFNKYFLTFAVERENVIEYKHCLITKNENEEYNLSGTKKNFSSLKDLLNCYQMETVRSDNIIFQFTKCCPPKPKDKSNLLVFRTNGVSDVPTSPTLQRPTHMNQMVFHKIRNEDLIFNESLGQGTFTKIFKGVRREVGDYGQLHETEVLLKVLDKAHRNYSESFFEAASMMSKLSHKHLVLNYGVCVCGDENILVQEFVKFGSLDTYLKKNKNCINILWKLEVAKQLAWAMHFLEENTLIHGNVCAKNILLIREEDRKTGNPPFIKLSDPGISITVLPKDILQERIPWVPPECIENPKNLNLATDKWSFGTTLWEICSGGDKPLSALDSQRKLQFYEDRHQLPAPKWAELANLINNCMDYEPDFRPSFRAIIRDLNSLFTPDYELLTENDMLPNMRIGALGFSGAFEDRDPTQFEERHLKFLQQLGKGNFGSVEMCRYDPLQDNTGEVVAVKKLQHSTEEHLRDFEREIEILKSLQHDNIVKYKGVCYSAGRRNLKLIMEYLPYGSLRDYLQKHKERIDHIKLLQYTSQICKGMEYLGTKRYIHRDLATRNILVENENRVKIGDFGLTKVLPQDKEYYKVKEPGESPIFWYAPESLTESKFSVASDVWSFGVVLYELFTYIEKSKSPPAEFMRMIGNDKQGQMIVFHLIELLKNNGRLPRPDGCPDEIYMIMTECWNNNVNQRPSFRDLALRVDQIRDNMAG

How the values were obtained:
[1] = system: CAR-T cells; experiment: CAR-T cell expansion assay (KIP-1 or CD3/CD28 stimulation); details: further dose titrations; depending on the mode of stimulation
[2] = Clinical pharmacokinetic data converted to in vitro concentrations; details: human, in vivo
[3] = biological target: JAK2 (Homo sapiens, UniProt O60674); experiment: JAK kinase inhibition biochemical assay (Kinase-Glo Plus luminescence), JAK2

## CCS(=O)(=O)N1CC(CC#N)(n2cc(-c3ncnc4[nH]ccc34)cn2)C1 [baricitinib]
[1]
  concentration at and above which severe effects on expansion were seen: 10 to 20 nM
[2]
  PPB adj. in Vitro concentration: 23 nM
  clinically relevant dose level (in vitro concentration): ~25 nM
[3]
  IC50: 14 nM
